Consider one molecule from ChEMBL document CHEMBL3596138, “A double effect molecular switch leads to a novel potent negative allosteric modulator of metabotropic glutamate receptor 5” (Medchemcomm, 2014).

By UniProt entry, the sequences of proteins in these tests, tags left out.
UniProt P31424, whole entry: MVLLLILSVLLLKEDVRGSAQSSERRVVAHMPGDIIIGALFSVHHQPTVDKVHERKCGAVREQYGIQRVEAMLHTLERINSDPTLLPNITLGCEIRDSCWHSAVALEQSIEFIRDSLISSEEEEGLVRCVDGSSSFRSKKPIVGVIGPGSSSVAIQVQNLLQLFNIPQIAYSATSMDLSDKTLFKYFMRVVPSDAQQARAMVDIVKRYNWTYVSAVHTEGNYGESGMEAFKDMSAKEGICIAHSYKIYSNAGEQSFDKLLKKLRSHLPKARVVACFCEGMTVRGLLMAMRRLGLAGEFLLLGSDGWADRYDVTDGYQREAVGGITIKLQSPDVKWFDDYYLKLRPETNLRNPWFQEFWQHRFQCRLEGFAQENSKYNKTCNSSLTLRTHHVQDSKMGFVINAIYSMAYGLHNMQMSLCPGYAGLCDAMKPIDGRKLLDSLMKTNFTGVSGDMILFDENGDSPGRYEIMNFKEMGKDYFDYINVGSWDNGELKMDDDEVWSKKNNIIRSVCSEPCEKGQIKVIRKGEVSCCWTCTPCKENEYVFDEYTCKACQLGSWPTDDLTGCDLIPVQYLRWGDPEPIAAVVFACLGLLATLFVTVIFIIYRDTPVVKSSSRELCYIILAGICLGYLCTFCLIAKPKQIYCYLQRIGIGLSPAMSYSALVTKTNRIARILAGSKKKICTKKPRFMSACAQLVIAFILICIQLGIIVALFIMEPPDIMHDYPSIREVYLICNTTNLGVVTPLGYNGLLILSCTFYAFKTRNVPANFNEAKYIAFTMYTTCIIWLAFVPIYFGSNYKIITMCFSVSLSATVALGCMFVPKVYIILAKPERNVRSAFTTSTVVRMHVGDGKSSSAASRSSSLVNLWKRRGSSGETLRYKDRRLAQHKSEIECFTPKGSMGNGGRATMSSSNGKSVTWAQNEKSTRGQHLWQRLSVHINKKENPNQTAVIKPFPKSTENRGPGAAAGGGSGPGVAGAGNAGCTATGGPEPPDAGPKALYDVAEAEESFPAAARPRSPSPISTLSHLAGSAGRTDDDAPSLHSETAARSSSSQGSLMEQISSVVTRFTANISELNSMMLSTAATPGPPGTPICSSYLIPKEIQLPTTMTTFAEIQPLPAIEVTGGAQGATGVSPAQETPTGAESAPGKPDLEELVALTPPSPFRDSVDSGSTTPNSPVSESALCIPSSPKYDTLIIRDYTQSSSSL

Each structure is given as a SMILES string.

In this test the target is Metabotropic glutamate receptor 5 (Rattus norvegicus, UniProt P31424). As to the kind of experiment: Negative allosteric modulator activity at rat mGlu5 receptor expressed in HEK293 cells assessed as effect on quisqualate-induced inositol phosphate accumulation incubated for 30 mins by florescence assay. It is filed as functional, cell-based.

On to `Cc1cccc(C#Cc2ccccc2)n1`, for which the IC50 – broadly, the concentration at which inhibition is half-maximal – was found to be 89 nM.
